According to patent US7541371B2, “Method for treating a motor neuron disease” (Eisai R&D Management Co., Ltd., priority 2006, dated 2009):

Tested on: rat motor neuron cells
Experiment: Inhibition of 5HT toxicity in rat motor neuron primary pure culture system
Format: cell-based
Conditions: compound added 5 to 10 min before 5HT; survival three days after seeding; FIG. 5, FIG. 6
Experimental: Rat motor neuron primary pure culture was carried out in the same manner as in Example 1 to prepare rat motor neuron cells. Based on the results of cell measurement, the rat motor neuron cells were diluted with the culture solution to 1.1 to 1.2×10^4 cells/mL. Greiner 4-well dishes previously coated with poly-L-ornithine/laminin were seeded with the cell suspension at 90 μL/well with a 1 mL Pipetman. One hr after the start of culture, a 5HT1A receptor antagonist NAN-190 (TOCRIS) or a 5HT2A receptor antagonist MDL-11939 (TOCRIS) was added, and serotonin (5HT) was added thereto 5 to 10 min after the addition of the antagonist. The initial viable cell count was measured three hr after the addition of serotonin (5HT). The viable cell count was again measured three days after the cell seeding, and the survival rate was calculated based on the initial viable cell count. […]
Rat motor neuron primary pure culture was carried out in the same manner as in Example 1 to prepare rat motor neuron cells. […] The initial viable cell count was measured three hr after the addition of serotonin (5HT). The viable cell count was again measured three days after the cell seeding, and the survival rate was calculated based on the initial viable cell count. […]

## O=c1n(CCCN2CCN(c3cccc(Cl)c3)CC2)nc2ccccn12 [trazodone]
  Concentration at which 5HT excitotoxicity is inhibited: not more than 1 nM
